# According to patent US11419944B2, “Non-linear self-immolative linkers and conjugates thereof” (priority 2016, dated 2022):
# Tested on: HER2-positive cell line SK-BR-3
# Test: In vitro cytotoxicity of anti-HER2 ADCs
# Assay type: cell-based, human
# Settings: relative IC50
substance,measurement,value
Trastuzumab-LD1: wild-type trastuzumab conjugated to linear linker-drug compound 1 (vc-seco-DUBA) [reference compound],IC50,0.18 nM
